Most of the highest values are listed elsewhere, so they are rarer here than in the full data.
System: mPer2Luc MEF
Assay: PER2::LUC luminescence relative to vehicle control (fold of vehicle); higher = higher PER2::LUC reporter signal
Conditions: 10 µM
Method in brief: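 Each value gives PER2::LUC luminescence as fold of vehicle control, measured with the ONE-Glo luciferase assay system in mouse embryonic fibroblasts carrying the mPer2Luc reporter. Cells grown in DMEM with 10% FBS at 37 °C and 5% CO2 were seeded at ~3000 per well in 384-well plates. Library compounds were added at 10 μM 48 h later, and readings were taken 24 h and 30 h after treatment.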

| SMILES | PER2::LUC luminescence (time after treatment 24 h) | PER2::LUC luminescence (time after treatment 30 h) |
| --- | --- | --- |
| NCc1ccc(OCCCc2sc(-c3ccc4c(c3)/C(=N/Nc3nc5ccccc5s3)CCC4)nc2C(=O)O)cc1 | 0.883 | 0.807 |
| COc1c2ccccc2nc2occc12 | 1.14 | 1.07 |
